Reference: PubChem BioAssay AID540263 (National Center for Advancing Translational Sciences (NCATS), 2011)
The list shows a part of the results, in another mix than the full data. Some tests of the compounds listed are not included; inactive here does not mean inactive elsewhere. Results filed as inconclusive are left out. The source made the active and inactive calls. Calls come from the whole dose curve.

By UniProt entry, the sequences of proteins in these tests, tags left out.
UniProt Q14974, whole entry: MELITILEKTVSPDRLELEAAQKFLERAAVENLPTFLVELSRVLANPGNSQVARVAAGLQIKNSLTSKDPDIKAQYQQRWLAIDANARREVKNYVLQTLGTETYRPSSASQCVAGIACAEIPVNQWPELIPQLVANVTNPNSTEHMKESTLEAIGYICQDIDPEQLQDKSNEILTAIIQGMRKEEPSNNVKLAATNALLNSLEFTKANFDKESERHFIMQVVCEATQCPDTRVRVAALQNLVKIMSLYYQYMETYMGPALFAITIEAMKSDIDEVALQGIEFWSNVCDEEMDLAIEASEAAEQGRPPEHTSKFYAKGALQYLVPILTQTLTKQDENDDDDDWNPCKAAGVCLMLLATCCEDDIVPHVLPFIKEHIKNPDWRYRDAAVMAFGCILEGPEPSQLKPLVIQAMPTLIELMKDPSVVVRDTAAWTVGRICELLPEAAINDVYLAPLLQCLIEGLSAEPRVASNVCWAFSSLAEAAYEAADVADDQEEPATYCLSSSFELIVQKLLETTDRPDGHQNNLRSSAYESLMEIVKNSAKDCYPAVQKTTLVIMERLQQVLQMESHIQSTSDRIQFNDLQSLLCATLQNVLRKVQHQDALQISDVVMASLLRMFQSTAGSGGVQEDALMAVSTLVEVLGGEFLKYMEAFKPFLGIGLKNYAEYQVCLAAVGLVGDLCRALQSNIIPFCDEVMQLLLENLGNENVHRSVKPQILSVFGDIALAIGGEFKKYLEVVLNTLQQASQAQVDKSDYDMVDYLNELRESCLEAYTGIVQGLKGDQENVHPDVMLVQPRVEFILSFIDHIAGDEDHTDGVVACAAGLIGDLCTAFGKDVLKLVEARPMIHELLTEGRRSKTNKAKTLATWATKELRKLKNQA
UniProt O95149, whole entry partner: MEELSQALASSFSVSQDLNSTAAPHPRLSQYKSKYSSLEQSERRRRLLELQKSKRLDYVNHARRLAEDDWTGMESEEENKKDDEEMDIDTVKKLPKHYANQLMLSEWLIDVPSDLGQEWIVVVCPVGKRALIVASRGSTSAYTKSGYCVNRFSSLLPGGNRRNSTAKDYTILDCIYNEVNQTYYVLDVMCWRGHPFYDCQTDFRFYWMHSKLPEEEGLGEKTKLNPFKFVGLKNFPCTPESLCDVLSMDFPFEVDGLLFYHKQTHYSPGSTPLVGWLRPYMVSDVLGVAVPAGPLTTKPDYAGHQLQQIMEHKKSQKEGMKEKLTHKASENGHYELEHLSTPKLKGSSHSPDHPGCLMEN

These compounds were tested against Importin subunit beta-1 (Homo sapiens) (UniProt Q14974) (assay: qHTS Assay for Inhibitors of Rango (Ran-regulated importin-beta cargo) - Importin beta complex formation). Conditions: Rango CFP/YFP FRET sensor + importin beta, 45 min; at 92.2 µM (top of the series).
Source text: NIH Molecular Libraries Probe Production Centers Network [MLPCN] NIH Chemical Genomics Center [NCGC] MLPCN Grant: R03 MH090808-01A1 Assay Submitter (PI): Petr Kalab NCGC Assay Overview: The small GTPase Ran regulates transport of macromolecules between the nucleus and the cytoplasm (nuclear transport) and has important functions in mitotic spindle assembly, nuclear envelope (NE) formation and nuclear pore complex (NPC) assembly. RanGTP gradient is thought to promote spindle assembly by providing a spatial clue to microtubule nucleation and Aurora A activation. Because the localized release and binding of importin alpha cargo relays this spatial clue to SAFs, inhibitors of the Rango - importin beta complex can then be used in further understanding their role in cell cycle specifically in mitosis progression. […] Activation of Aurora A has been linked to different types of cancer and a number of Aurora kinase inhibitors are being developed as potential canter therapeutics therefore, identified inhibitors of this complex could be developed into potential anti-mitotic probes for cancer treatment. Purified recombinant proteins Rango and importin beta were provided by the assay submitter. The assay used a fluorescence resonance energy transfer (FRET) Rango biosensor that contains the IBB of human snurportin 1 flanked by yellow fluorescent protein (EYFP) at the amino terminus and cerulean CFP10 at the carboxy terminus. […] Inhibitors will therefore be identified based on the ability to interfere with the FRET signal decrease. DMSO treated and no importin beta (buffer only) wells were used as negative and positive controls respectively. FRET readings were obtained at two time points. FRET reading prior to importin beta addition (pre-read) were used flag potential compound interference; FRET reading after importin beta addition (post-read) were used to identify inhibitors using the FRET ratio parameter.
NCGC Assay Protocol Summary: Two and a half uL/well of Rango-buffer solution (50 nM Rango, 1x PBS, 1mM DTT, 0.02% Tween-20, 0.1% BSA final concentrations) was dispensed into 1536-well assay plates (Greiner, solid black medium-binding plates) with Aurora Discovery BioRAPTR Flying Reagent Dispenser (FRD; Beckton-Dickenson). Compound solution (23 nL) was transferred to the assay plate using Kalypsys pin tool equipped with a 1536-pin tool and incubated at room temperature for 5 min followed by a FRET pre-read using the PerkinElmer Envision plate reader. Two and a half uL/well of Importin beta - buffer solution (0.125 microM importin beta, 1x PBS, 1mM DTT, 0.02% Tween-20, 0.1% BSA final concentrations) were then added and incubated at room temperature giving a final reaction volume of 5uL. After 45min FRET post-read was obtained via the Envision plate reader using the same optics and settings as the pre-read (CFP/YFP optimized dual optical module D450/D505; excitation mirror CFP 430/24 nm; and emission filters CFP 486/10 nm and YFP 530/10 nm).
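Note: 0% = DMSO wells and 100% = buffer wells lacking importin beta; nearly all actives have a fitted effect of over 15% in size.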

Question: With `O=C(NCC1(N2CCCCC2)CCCCC1)c1cc([N+](=O)[O-])ccc1Cl` as the compound, how does the inhibition of complex formation read?
Answer: inactive: -2.94%

Question: With `CN1[C@@H]2CC[C@H]1CC(OC(=O)C(O)(c1ccccc1)c1ccccc1)C2` (some centres undefined) as the compound, how does the inhibition of complex formation read?
Answer: inactive: 4.42%

Question: Which inhibition of complex formation does the source give for `COc1cc(SC)ccc1C(=O)NCC1(N(C)C)CCCCC1` here?
Answer: inactive: 1.74%

Question: For `CCN(CC)CC(C)C(C)OC(=O)C(O)(c1ccccc1)c1ccccc1` (centres undefined), which inhibition of complex formation is on record?
Answer: inactive: 2.64%

Question: With `CC(C)N1C(=O)CC2(CCN(CCOC(=O)C(O)(c3ccccc3)c3ccccc3)CC2)C1=O` as the compound, how does the inhibition of complex formation read?
Answer: inactive: -0.032%

Question: For `Cc1ccc(C(=O)NCC2(N3CCCCC3)CCCCC2)cc1`, which inhibition of complex formation is on record?
Answer: inactive: 1.15%

Question: Which inhibition of complex formation does the source give for `CN(C)c1ccc(C(=O)NCC2(N(C)C)CCCCC2)cc1` here?
Answer: inactive: -0.192%

Question: For `CN(C)C1CCCC1OC(=O)C(O)(c1ccccc1)c1ccccc1` (centres undefined), which inhibition of complex formation is on record?
Answer: inactive: -0.317%

Question: Which inhibition of complex formation does the source give for `Cc1ccccc1C(=O)NCC1(N2CCCCC2)CCCCC1` here?
Answer: inactive: -0.896%

Question: For `O=C(NCC1(N2CCCCC2)CCCCC1)c1cc(F)c(F)cc1Cl`, which inhibition of complex formation is on record?
Answer: inactive: 4.46%

Question: With `C=CCN1CCN(CCOC(=O)C(O)(c2ccccc2)c2ccccc2)CC1` as the compound, how does the inhibition of complex formation read?
Answer: inactive: -0.642%

Question: How did the inhibition of complex formation turn out when `COc1ccc(C(=O)NCC2(N(C)C)CCCCC2)cc1` was run?
Answer: inactive: -1.89%

Question: For `O=C(NCC1(N2CCCCC2)CCCCC1)c1cccc(Br)c1`, which inhibition of complex formation is on record?
Answer: inactive: 1.48%

Question: How did the inhibition of complex formation turn out when `CCN1CCCC(OC(=O)C2(O)c3ccccc3C=Cc3ccccc32)C1` (centres undefined) was run?
Answer: inactive: -5.4%

Question: How did the inhibition of complex formation turn out when `Cc1cc(C(=O)NCC2(N3CCCCC3)CCCCC2)ccc1[N+](=O)[O-]` was run?
Answer: inactive: -5.45%

Question: Which inhibition of complex formation does the source give for `CN(C)C1(CNC(=O)c2ccc(Br)cc2)CCCCC1` here?
Answer: inactive: 1.6%

Question: How did the inhibition of complex formation turn out when `COc1cc(C(=O)NCC2(N(C)C)CCCCC2)c([N+](=O)[O-])cc1OC` was run?
Answer: inactive: -0.0733%

Question: Which inhibition of complex formation does the source give for `COc1ccc(Cl)cc1C(=O)NCC1(N(C)C)CCCCC1` here?
Answer: inactive: -0.0887%

Question: Which inhibition of complex formation does the source give for `COc1cccc(C(=O)NCC2(N3CCCCC3)CCCCC2)c1` here?
Answer: inactive: -3.5%

Question: With `O=C(OC1CN2CCC1CC2)C(CO)(c1ccccc1)c1ccccc1` (centres undefined) as the compound, how does the inhibition of complex formation read?
Answer: inactive: 2.69%

Question: How did the inhibition of complex formation turn out when `COc1ccc(Br)c(C(=O)NCC2(N3CCCCC3)CCCCC2)c1` was run?
Answer: inactive: -7.16%

Question: For `O=C(OCCN1CCCC1)C(O)(c1ccccc1)c1ccccc1`, which inhibition of complex formation is on record?
Answer: inactive: -0.492%

Question: For `CC(C)Oc1ccc(C(=O)NCC2(N(C)C)CCCCC2)cc1`, which inhibition of complex formation is on record?
Answer: inactive: 5.01%

Question: Which inhibition of complex formation does the source give for `CN(C)c1cccc(C(=O)NCC2(N(C)C)CCCCC2)c1` here?
Answer: inactive: 1.61%
